This note sets out measurements from ChEMBL document CHEMBL4020816.

Sequences of proteins named here, by UniProt entry; tags and fusion partners are left off.
UniProt P21554, whole entry: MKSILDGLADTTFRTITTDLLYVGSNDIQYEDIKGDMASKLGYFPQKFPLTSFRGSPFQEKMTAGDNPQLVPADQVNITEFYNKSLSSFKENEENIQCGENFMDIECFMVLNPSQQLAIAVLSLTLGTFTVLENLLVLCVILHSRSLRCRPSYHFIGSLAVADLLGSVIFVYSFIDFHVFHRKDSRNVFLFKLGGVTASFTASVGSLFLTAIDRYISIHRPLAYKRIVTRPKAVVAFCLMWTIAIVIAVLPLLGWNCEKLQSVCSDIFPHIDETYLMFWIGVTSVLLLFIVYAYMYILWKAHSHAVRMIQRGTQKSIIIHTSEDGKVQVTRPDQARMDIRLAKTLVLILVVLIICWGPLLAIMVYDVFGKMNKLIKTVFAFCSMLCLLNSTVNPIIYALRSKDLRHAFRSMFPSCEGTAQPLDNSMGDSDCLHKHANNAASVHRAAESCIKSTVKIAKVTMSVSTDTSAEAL

In assay [1] the target is T1, Cannabinoid receptor 1 (Homo sapiens, UniProt P21554). Description: Displacement of [3H]CP55940 from recombinant human CB1 receptor expressed in beta-galactosidase expressing CHOK1 cell membranes after 60 mins by scintillation spectrometry. (In general: In a radioligand displacement assay an active substance lowers the binding of a labelled ligand.)
Assay [2] deals with T1, Cannabinoid receptor 1. The experiment in a line: Antagonist activity at recombinant human CB1 receptor expressed in HEK293 cell membranes assessed as inhibition of CP55940-induced [35S]GTPgammaS binding preincubated for 1 hr followed by CP55940 addition and subsequent incubation with [35S]GTPgammaS measured after 30 mins by scintillation spectrometry. It is filed as functional. For orientation: Binding of GTPγS marks nucleotide exchange on a G protein.

Assay [3] deals with T1, Cannabinoid receptor 1. Description: Displacement of [3H]CP55940 from recombinant human CB1 receptor expressed in beta-galactosidase expressing CHOK1 cell membranes assessed as kinetic rate index by measuring ratio of radioligand binding at 30 mins to 240 mins by scintillation spectrometry.

As a reminder, the Ki is a dissociation constant, usually derived from enzyme kinetics or from competition with a known ligand. In general, IC50 refers to the point on the concentration scale where inhibition reaches its midpoint. Regarding `Cc1c(C(=O)NN2CCCCC2)nc(-c2ccc(Cl)cc2Cl)n1-c1ccc(OCc2ccccc2)cc1`, at Cannabinoid receptor 1 [1], the Ki worked out at 6.28 nM. Moreover, the 50% inhibitory concentration (IC50) on Cannabinoid receptor 1 [2] is 20 nM. In addition, the Ratio at Cannabinoid receptor 1 [3] was 0.9.
